Results taken from US20130252943A1, “BICYCLIC OXAZOLE LACTAMS AS ALLOSTERIC MODULATORS OF MGLUR5 RECEPTORS” (VANDERBILT UNIVERSITY, priority 2012, published 2013).

Sequences of proteins named here, by UniProt entry; tags and fusion partners are left off. Residues count along the entry.
UniProt P41594, 21-1180 isoform 2 limits assumed: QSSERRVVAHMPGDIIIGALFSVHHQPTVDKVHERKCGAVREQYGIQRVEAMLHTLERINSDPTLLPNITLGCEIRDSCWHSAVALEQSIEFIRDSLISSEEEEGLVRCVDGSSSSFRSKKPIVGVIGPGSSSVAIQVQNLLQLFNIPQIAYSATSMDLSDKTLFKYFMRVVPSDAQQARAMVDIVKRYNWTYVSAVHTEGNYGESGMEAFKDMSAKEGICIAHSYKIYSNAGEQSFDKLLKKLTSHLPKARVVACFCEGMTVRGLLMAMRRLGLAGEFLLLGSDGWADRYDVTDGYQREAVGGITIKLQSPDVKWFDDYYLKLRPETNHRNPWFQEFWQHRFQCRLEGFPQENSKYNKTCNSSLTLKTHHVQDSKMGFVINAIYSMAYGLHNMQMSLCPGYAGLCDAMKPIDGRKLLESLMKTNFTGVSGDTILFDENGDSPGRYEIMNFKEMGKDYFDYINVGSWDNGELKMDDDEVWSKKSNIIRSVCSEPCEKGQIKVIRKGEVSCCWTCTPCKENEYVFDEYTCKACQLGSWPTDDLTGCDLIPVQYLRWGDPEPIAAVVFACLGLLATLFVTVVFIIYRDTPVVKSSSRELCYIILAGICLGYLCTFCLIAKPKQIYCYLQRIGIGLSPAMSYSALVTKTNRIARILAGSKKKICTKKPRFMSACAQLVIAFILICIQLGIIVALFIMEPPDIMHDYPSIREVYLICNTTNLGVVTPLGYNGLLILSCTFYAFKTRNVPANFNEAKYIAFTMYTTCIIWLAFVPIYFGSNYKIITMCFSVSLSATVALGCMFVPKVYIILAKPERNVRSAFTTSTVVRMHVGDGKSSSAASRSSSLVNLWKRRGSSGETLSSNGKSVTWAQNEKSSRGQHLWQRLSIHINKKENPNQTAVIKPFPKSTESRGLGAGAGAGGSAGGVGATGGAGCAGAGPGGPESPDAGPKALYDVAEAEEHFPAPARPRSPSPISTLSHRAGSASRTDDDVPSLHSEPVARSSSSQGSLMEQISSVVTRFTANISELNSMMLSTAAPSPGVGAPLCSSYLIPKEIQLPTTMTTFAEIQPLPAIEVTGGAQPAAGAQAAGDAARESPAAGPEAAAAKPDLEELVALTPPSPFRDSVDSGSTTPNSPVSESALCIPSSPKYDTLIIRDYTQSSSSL

Target: human mGluR5 (Homo sapiens, UniProt P41594)
Test: Cell-based functional Ca2+ mobilization assay (FDSS), potentiation of glutamate EC20 response, H10H cell line
Conditions: HEK H10H cells; for Emax (%): maximum average response at a single concentration, as percent of maximal glutamate response, glutamate EC20; for pEC50: positive allosteric modulation in presence of glutamate EC20, concentration in mol/L

SMILES | Emax (%) | pEC50
O=C1c2oc(COc3ccccc3)nc2CCCN1c1ccc(F)cc1 | 76 | 5.76
O=C1c2oc(COc3ccccc3)nc2CCN1c1ccc(F)cc1F | 74 | 6.37
